Measurements reported in article PMC10573254, “Development of Novel Class of Phenylpyrazolo[3,4-d]pyrimidine-Based Analogs with Potent Anticancer Activity and Multitarget Enzyme Inhibition Supported by Docking Studies” (International Journal of Molecular Sciences, 2023).

By UniProt entry, the sequences of proteins in these tests, tags left out. Residues count along the entry.
UniProt P35968, 20-1356 limits assumed: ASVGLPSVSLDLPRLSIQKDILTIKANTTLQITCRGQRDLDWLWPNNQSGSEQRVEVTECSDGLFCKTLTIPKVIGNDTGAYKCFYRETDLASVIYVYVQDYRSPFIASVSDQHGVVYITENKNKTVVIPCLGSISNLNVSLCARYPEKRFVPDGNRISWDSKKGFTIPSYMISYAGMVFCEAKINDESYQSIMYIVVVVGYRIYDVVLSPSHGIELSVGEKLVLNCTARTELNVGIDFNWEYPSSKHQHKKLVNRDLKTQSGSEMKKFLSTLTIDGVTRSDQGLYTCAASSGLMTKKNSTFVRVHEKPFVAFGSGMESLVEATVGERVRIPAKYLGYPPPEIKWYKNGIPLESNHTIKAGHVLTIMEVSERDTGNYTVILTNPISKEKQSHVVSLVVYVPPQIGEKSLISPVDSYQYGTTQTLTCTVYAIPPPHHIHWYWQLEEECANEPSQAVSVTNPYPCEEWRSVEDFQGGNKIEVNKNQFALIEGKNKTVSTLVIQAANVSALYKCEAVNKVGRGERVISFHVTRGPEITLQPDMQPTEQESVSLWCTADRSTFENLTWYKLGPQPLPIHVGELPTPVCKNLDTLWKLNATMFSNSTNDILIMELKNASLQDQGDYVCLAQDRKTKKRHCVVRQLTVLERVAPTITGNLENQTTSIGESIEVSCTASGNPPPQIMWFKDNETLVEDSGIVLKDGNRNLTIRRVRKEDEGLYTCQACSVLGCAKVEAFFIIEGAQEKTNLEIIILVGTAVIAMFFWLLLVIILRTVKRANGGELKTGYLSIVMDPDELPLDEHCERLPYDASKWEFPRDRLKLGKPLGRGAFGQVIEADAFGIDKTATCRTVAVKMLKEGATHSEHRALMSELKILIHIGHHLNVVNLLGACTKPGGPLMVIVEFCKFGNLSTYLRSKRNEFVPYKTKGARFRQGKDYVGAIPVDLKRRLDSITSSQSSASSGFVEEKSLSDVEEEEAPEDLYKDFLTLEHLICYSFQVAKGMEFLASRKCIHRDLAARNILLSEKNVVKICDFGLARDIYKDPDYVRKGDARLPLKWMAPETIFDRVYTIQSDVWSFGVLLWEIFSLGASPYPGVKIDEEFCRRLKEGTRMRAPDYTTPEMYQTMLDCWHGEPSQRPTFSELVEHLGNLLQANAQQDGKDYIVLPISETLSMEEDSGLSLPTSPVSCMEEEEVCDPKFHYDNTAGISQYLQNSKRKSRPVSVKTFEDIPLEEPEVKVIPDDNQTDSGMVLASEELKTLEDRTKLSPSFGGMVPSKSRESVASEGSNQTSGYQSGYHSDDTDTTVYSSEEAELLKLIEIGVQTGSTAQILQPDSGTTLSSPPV
UniProt Q02880, 2-1626 limits assumed: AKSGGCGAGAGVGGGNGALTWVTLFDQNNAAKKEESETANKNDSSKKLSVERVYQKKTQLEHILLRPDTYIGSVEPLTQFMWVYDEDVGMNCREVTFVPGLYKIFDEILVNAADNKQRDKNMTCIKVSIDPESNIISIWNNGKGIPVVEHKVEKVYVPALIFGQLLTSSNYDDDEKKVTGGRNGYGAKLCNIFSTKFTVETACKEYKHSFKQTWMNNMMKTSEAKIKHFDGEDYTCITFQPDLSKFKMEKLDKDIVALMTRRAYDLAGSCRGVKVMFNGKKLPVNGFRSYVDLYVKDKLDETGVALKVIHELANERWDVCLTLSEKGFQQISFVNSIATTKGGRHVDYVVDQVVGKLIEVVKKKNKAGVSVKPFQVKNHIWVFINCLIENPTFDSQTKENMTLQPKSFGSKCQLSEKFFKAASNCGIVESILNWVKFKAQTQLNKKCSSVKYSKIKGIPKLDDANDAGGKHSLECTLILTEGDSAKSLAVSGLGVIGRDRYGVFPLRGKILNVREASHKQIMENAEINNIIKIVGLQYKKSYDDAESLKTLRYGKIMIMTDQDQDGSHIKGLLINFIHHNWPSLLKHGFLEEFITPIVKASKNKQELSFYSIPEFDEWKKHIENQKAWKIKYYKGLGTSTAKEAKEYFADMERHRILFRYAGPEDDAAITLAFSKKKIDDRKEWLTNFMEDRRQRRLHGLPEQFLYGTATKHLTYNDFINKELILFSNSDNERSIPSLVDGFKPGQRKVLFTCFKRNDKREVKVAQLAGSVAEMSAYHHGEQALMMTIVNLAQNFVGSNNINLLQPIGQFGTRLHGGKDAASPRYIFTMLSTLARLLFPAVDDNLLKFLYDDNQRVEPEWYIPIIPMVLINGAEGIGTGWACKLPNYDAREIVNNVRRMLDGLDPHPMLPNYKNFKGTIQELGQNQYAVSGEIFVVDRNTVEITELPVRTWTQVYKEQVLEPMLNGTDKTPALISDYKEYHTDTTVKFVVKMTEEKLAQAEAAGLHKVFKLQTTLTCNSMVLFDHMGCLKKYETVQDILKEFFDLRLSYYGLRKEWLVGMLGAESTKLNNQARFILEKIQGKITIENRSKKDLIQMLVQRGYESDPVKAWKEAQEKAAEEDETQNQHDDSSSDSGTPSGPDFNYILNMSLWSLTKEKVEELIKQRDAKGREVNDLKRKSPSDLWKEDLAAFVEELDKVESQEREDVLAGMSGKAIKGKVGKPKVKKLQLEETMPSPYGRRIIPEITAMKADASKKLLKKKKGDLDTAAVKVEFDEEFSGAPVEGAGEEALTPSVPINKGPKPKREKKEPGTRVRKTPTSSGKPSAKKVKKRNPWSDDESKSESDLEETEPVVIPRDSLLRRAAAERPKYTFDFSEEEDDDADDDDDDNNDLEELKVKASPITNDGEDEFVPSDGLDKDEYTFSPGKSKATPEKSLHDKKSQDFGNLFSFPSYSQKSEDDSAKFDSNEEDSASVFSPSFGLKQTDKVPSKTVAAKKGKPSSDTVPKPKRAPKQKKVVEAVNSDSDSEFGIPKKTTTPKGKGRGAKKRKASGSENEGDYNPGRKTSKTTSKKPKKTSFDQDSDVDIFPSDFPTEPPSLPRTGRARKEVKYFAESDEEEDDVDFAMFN

How the values were obtained:
VEGFR-2 = VEGFR-2 (Homo sapiens, UniProt P35968); assay: In vitro VEGFR2 enzyme inhibitory assay; type: biochemical; settings: for VEGFR2 %inh at conc 0.01: conc 0.01, unit not given; for VEGFR2 %inh at conc 0.1: conc 0.1, unit not given; for VEGFR2 %inh at conc 1: conc 1, unit not given; for VEGFR2 %inh at conc 10: conc 10, unit not given; for VEGFR2 IC50 (lab report): supplement lab report
Topo-II = Topo-II (Homo sapiens, UniProt Q02880); assay: In vitro Topo II inhibitory assay; type: biochemical; settings: for TOPO IiB %inh at conc 0.1: conc 0.1, unit not given; for TOPO IiB %inh at conc 1: conc 1, unit not given; for TOPO IiB %inh at conc 10: conc 10, unit not given; for TOPO IiB %inh at conc 100: conc 100, unit not given; for TOP2a IC50 (lab report): supplement lab report, Human DNA Topoisomerase 2B Kit

VEGFR2 %inh at conc 0.01 (VEGFR-2)	VEGFR2 %inh at conc 0.1 (VEGFR-2)	VEGFR2 %inh at conc 1 (VEGFR-2)	VEGFR2 %inh at conc 10 (VEGFR-2)	VEGFR2 IC50 (lab report) (VEGFR-2)	TOPO IiB %inh at conc 0.1 (Topo-II)	TOPO IiB %inh at conc 1 (Topo-II)	TOPO IiB %inh at conc 10 (Topo-II)	TOPO IiB %inh at conc 100 (Topo-II)	TOP2a IC50 (lab report) (Topo-II)	SMILES
31%	55%	76%	91%	0.119 µg/mL	11%	29%	62%	77%	5.38 µg/mL	COc1ccccc1C=NNc1nc(C)nc2c1cnn2-c1ccccc1 [Compound 5e, 4-(2-(2-Methoxybenzylidene)hydrazineyl)-6-methyl-1-phenyl-1H-pyrazolo[3,4-d]pyrimidine]
28%	43%	78%	89%	0.26 µg/mL	16%	34%	57%	71%	6.21 µg/mL	Cc1nc(NN=Cc2ccccc2)c2cnn(-c3ccccc3)c2n1 [Compound 5a, 4-(2-Benzylidenehydrazinyl)-6-methyl-1-phenyl-1H-pyrazolo[3,4-d]pyrimidine]
23%	41%	71%	87%	0.459 µg/mL	4.5%	8.4%	24%	59%	89.5 µg/mL	COc1ccc(C=NNc2nc(C)nc3c2cnn3-c2ccccc2)cc1 [Compound 5d]
